Test system: H1618 and DMS79 cells
Assay: IFN response activity assay: pre-treatment, SVV-GFP challenge, flow cytometry
Conditions: 25 Units/mL IFN pre-treatment 24 h, then SVV-GFP 16 h; both cell lines

B1: IFNβ: exogenous interferon beta used to activate the IFN pathways (protein, UniProt P01574 22-187, looked up)
Interferon beta: MSYNLLGFLQRSSNFQCQKLLWQLNGRLEYCLKDRMNFDIPEEIKQLQQFQKEDAALTIYEMLQNIFAIFRQDSSSTGWNETIVENLLANVYHQINHLKTVLEEKLEKEDFTRGKLMSSLHLKRYYGRILHYLKAKEYSHCAWTIVRVEILRNFYFINRLTGYLRN
- SVV permissive, or GFP+ cells: decrease

Source: patent US12472218B2, “Seneca valley virus (SVV) cellular receptor targeted oncotherapy” (Memorial Sloan-Kettering Cancer Center, priority 2015, dated 2025)
